Experimental data reported in patent US20060252744A1 (priority 2005, published 2006).

The chains behind the UniProt entries cited, without tags or fusion partners.
UniProt P14416, whole entry: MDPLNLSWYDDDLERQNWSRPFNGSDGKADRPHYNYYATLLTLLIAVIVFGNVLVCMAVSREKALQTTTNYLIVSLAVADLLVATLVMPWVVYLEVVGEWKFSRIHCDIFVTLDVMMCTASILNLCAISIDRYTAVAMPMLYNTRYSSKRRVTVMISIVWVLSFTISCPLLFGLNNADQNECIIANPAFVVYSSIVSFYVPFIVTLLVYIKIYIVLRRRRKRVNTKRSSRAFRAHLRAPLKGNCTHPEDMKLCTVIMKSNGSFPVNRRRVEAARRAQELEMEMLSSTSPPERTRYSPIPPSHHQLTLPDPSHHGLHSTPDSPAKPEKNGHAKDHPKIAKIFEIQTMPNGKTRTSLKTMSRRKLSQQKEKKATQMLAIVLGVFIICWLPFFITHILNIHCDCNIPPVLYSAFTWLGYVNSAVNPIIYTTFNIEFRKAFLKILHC

Target: human D2 dopamine receptor (Homo sapiens, UniProt P14416)
Test: R-SAT functional receptor assay, D2 receptor co-expressed with Gαo

CN1CCN(C2Cc3ccccc3Sc3ccc(Cl)cc32)CC1.O=C(O)/C=C\C(=O)O (stereo not shown) [octoclothepin]
D2 basal (basal response, no drug = 100%): 76 +/− 4%
